Measured values as given in article PMC11079024, “Identification of a family of species-selective complex I inhibitors as potential anthelmintics” (Nature Communications, 2024).

Tested on: anthelmintic/nematicide-resistant C. elegans mutant strains
Settings: for dose response, relative development/viability: acr-23 (ok2804)

## CC(C)Cc1ccc(C(C)c2nc3ccccc3n2C)cc1 (stereo not shown) [NPD8790]
1 µM, strain CB3474, G104D (ben-1)
  C. elegans L1 relative development & viability (score 0-1 relative to DMSO controls): 1.000
1 µM, strain ECA917, F200Y (ben-1)
  C. elegans L1 relative development & viability (score 0-1 relative to DMSO controls): 1.000
1 µM, strain ECA1075, F167Y (ben-1)
  C. elegans L1 relative development & viability (score 0-1 relative to DMSO controls): 0.989
1 µM, strain ECA1080, E198A (ben-1)
  C. elegans L1 relative development & viability (score 0-1 relative to DMSO controls): 1.000
2 µM, strain CB3474, G104D (ben-1)
  C. elegans L1 relative development & viability (score 0-1 relative to DMSO controls): 1.000
2 µM, strain ECA917, F200Y (ben-1)
  C. elegans L1 relative development & viability (score 0-1 relative to DMSO controls): 1.000
2 µM, strain ECA1075, F167Y (ben-1)
  C. elegans L1 relative development & viability (score 0-1 relative to DMSO controls): 1.000
2 µM, strain ECA1080, E198A (ben-1)
  C. elegans L1 relative development & viability (score 0-1 relative to DMSO controls): 1.000
3.9 µM, strain CB3474, G104D (ben-1)
  C. elegans L1 relative development & viability (score 0-1 relative to DMSO controls): 1.000
3.9 µM, strain ECA917, F200Y (ben-1)
  C. elegans L1 relative development & viability (score 0-1 relative to DMSO controls): 1.000
3.9 µM, strain ECA1075, F167Y (ben-1)
  C. elegans L1 relative development & viability (score 0-1 relative to DMSO controls): 0.969
3.9 µM, strain ECA1080, E198A (ben-1)
  C. elegans L1 relative development & viability (score 0-1 relative to DMSO controls): 1.000
7.8 µM, strain CB3474, G104D (ben-1)
  C. elegans L1 relative development & viability (score 0-1 relative to DMSO controls): 1.000
7.8 µM, strain ECA917, F200Y (ben-1)
  C. elegans L1 relative development & viability (score 0-1 relative to DMSO controls): 1.000
7.8 µM, strain ECA1075, F167Y (ben-1)
  C. elegans L1 relative development & viability (score 0-1 relative to DMSO controls): 1.000
7.8 µM, strain ECA1080, E198A (ben-1)
  C. elegans L1 relative development & viability (score 0-1 relative to DMSO controls): 1.000
15.6 µM, strain CB3474, G104D (ben-1)
  C. elegans L1 relative development & viability (score 0-1 relative to DMSO controls): 1.000
15.6 µM, strain ECA917, F200Y (ben-1)
  C. elegans L1 relative development & viability (score 0-1 relative to DMSO controls): 1.000
15.6 µM, strain ECA1075, F167Y (ben-1)
  C. elegans L1 relative development & viability (score 0-1 relative to DMSO controls): 0.915
15.6 µM, strain ECA1080, E198A (ben-1)
  C. elegans L1 relative development & viability (score 0-1 relative to DMSO controls): 1.000
31.3 µM, strain CB3474, G104D (ben-1)
  C. elegans L1 relative development & viability (score 0-1 relative to DMSO controls): 1.000
31.3 µM, strain ECA917, F200Y (ben-1)
  C. elegans L1 relative development & viability (score 0-1 relative to DMSO controls): 1.000
31.3 µM, strain ECA1075, F167Y (ben-1)
  C. elegans L1 relative development & viability (score 0-1 relative to DMSO controls): 0.959
31.3 µM, strain ECA1080, E198A (ben-1)
  C. elegans L1 relative development & viability (score 0-1 relative to DMSO controls): 1.000
62.5 µM, strain CB3474, G104D (ben-1)
  C. elegans L1 relative development & viability (score 0-1 relative to DMSO controls): 1.000
62.5 µM, strain ECA917, F200Y (ben-1)
  C. elegans L1 relative development & viability (score 0-1 relative to DMSO controls): 1.000
62.5 µM, strain ECA1075, F167Y (ben-1)
  C. elegans L1 relative development & viability (score 0-1 relative to DMSO controls): 1.000
62.5 µM, strain ECA1080, E198A (ben-1)
  C. elegans L1 relative development & viability (score 0-1 relative to DMSO controls): 1.000
125 µM, strain CB3474, G104D (ben-1)
  C. elegans L1 relative development & viability (score 0-1 relative to DMSO controls): 1.000
125 µM, strain ECA917, F200Y (ben-1)
  C. elegans L1 relative development & viability (score 0-1 relative to DMSO controls): 1.000
125 µM, strain ECA1075, F167Y (ben-1)
  C. elegans L1 relative development & viability (score 0-1 relative to DMSO controls): 1.000
125 µM, strain ECA1080, E198A (ben-1)
  C. elegans L1 relative development & viability (score 0-1 relative to DMSO controls): 1.000
250 µM, strain CB3474, G104D (ben-1)
  C. elegans L1 relative development & viability (score 0-1 relative to DMSO controls): 1.000
250 µM, strain ECA917, F200Y (ben-1)
  C. elegans L1 relative development & viability (score 0-1 relative to DMSO controls): 1.000
250 µM, strain ECA1075, F167Y (ben-1)
  C. elegans L1 relative development & viability (score 0-1 relative to DMSO controls): 0.968
250 µM, strain ECA1080, E198A (ben-1)
  C. elegans L1 relative development & viability (score 0-1 relative to DMSO controls): 1.000
500 µM, strain CB3474, G104D (ben-1)
  C. elegans L1 relative development & viability (score 0-1 relative to DMSO controls): 0.616
500 µM, strain ECA917, F200Y (ben-1)
  C. elegans L1 relative development & viability (score 0-1 relative to DMSO controls): 0.616
500 µM, strain ECA1075, F167Y (ben-1)
  C. elegans L1 relative development & viability (score 0-1 relative to DMSO controls): 0.402
500 µM, strain ECA1080, E198A (ben-1)
  C. elegans L1 relative development & viability (score 0-1 relative to DMSO controls): 0.522
CB3474 G104D (ben-1), 1 µM, score 0-1 relative to DMSO, values >1 set to 1
  C. elegans L1 relative development & viability: 1.000
CB3474 G104D (ben-1), 2 µM, score 0-1 relative to DMSO, values >1 set to 1
  C. elegans L1 relative development & viability: 1.000
CB3474 G104D (ben-1), 3.9 µM, score 0-1 relative to DMSO, values >1 set to 1
  C. elegans L1 relative development & viability: 1.000
CB3474 G104D (ben-1), 7.8 µM, score 0-1 relative to DMSO, values >1 set to 1
  C. elegans L1 relative development & viability: 1.000
CB3474 G104D (ben-1), 15.6 µM, score 0-1 relative to DMSO, values >1 set to 1
  C. elegans L1 relative development & viability: 1.000
CB3474 G104D (ben-1), 31.3 µM, score 0-1 relative to DMSO, values >1 set to 1
  C. elegans L1 relative development & viability: 1.000
CB3474 G104D (ben-1), 62.5 µM, score 0-1 relative to DMSO, values >1 set to 1
  C. elegans L1 relative development & viability: 1.000
CB3474 G104D (ben-1), 125 µM, score 0-1 relative to DMSO, values >1 set to 1
  C. elegans L1 relative development & viability: 1.000
CB3474 G104D (ben-1), 250 µM, score 0-1 relative to DMSO, values >1 set to 1
  C. elegans L1 relative development & viability: 1.000
CB3474 G104D (ben-1), 500 µM, […]
  C. elegans L1 relative development & viability: 0.616
ECA917 F200Y (ben-1), 1 µM, score 0-1 relative to DMSO, values >1 set to 1
  C. elegans L1 relative development & viability: 1.000
ECA917 F200Y (ben-1), 2 µM, score 0-1 relative to DMSO, values >1 set to 1
  C. elegans L1 relative development & viability: 1.000
ECA917 F200Y (ben-1), 3.9 µM, score 0-1 relative to DMSO, values >1 set to 1
  C. elegans L1 relative development & viability: 1.000
ECA917 F200Y (ben-1), 7.8 µM, score 0-1 relative to DMSO, values >1 set to 1
  C. elegans L1 relative development & viability: 1.000
ECA917 F200Y (ben-1), 15.6 µM, score 0-1 relative to DMSO, values >1 set to 1
  C. elegans L1 relative development & viability: 1.000
ECA917 F200Y (ben-1), 31.3 µM, score 0-1 relative to DMSO, values >1 set to 1
  C. elegans L1 relative development & viability: 1.000
ECA917 F200Y (ben-1), 62.5 µM, score 0-1 relative to DMSO, values >1 set to 1
  C. elegans L1 relative development & viability: 1.000
ECA917 F200Y (ben-1), 125 µM, score 0-1 relative to DMSO, values >1 set to 1
  C. elegans L1 relative development & viability: 1.000
ECA917 F200Y (ben-1), 250 µM, score 0-1 relative to DMSO, values >1 set to 1
  C. elegans L1 relative development & viability: 1.000
ECA917 F200Y (ben-1), 500 µM, […]
  C. elegans L1 relative development & viability: 0.616
ECA1075 F167Y (ben-1), 2 µM, score 0-1 relative to DMSO, values >1 set to 1
  C. elegans L1 relative development & viability: 1.000
ECA1075 F167Y (ben-1), 3.9 µM, […]
  C. elegans L1 relative development & viability: 0.969
ECA1075 F167Y (ben-1), 7.8 µM, score 0-1 relative to DMSO, values >1 set to 1
  C. elegans L1 relative development & viability: 1.000
ECA1075 F167Y (ben-1), 15.6 µM, […]
  C. elegans L1 relative development & viability: 0.915
ECA1075 F167Y (ben-1), 31.3 µM, […]
  C. elegans L1 relative development & viability: 0.959
ECA1075 F167Y (ben-1), 62.5 µM, score 0-1 relative to DMSO, values >1 set to 1
  C. elegans L1 relative development & viability: 1.000
ECA1075 F167Y (ben-1), 125 µM, score 0-1 relative to DMSO, values >1 set to 1
  C. elegans L1 relative development & viability: 1.000
ECA1075 F167Y (ben-1), 250 µM, […]
  C. elegans L1 relative development & viability: 0.968
ECA1075 F167Y (ben-1), 500 µM, […]
  C. elegans L1 relative development & viability: 0.402
ECA1080 E198A (ben-1), 1 µM, score 0-1 relative to DMSO, values >1 set to 1
  C. elegans L1 relative development & viability: 1.000
ECA1080 E198A (ben-1), 2 µM, score 0-1 relative to DMSO, values >1 set to 1
  C. elegans L1 relative development & viability: 1.000
ECA1080 E198A (ben-1), 3.9 µM, score 0-1 relative to DMSO, values >1 set to 1
  C. elegans L1 relative development & viability: 1.000
ECA1080 E198A (ben-1), 7.8 µM, score 0-1 relative to DMSO, values >1 set to 1
  C. elegans L1 relative development & viability: 1.000
ECA1080 E198A (ben-1), 15.6 µM, score 0-1 relative to DMSO, values >1 set to 1
  C. elegans L1 relative development & viability: 1.000
ECA1080 E198A (ben-1), 31.3 µM, score 0-1 relative to DMSO, values >1 set to 1
  C. elegans L1 relative development & viability: 1.000
ECA1080 E198A (ben-1), 62.5 µM, score 0-1 relative to DMSO, values >1 set to 1
  C. elegans L1 relative development & viability: 1.000
ECA1080 E198A (ben-1), 125 µM, score 0-1 relative to DMSO, values >1 set to 1
  C. elegans L1 relative development & viability: 1.000
ECA1080 E198A (ben-1), 250 µM, score 0-1 relative to DMSO, values >1 set to 1
  C. elegans L1 relative development & viability: 1.000
ECA1080 E198A (ben-1), 500 µM, […]
  C. elegans L1 relative development & viability: 0.522
Concentration 2, Mean of replicates
  dose response, relative development/viability: 0.942
Concentration 3.9, Mean of replicates
  dose response, relative development/viability: 0.863
Concentration 7.8, Mean of replicates
  dose response, relative development/viability: 0.969
Concentration 15.6, Mean of replicates
  dose response, relative development/viability: 0.964
Concentration 15.6, single biological replicates (Rep)
  dose response, relative development/viability: 1.000 and 0.854
Concentration 31.3, Mean of replicates
  dose response, relative development/viability: 0.855
Concentration 62.5, Mean of replicates
  dose response, relative development/viability: 0.866
Concentration 125, Mean of replicates
  dose response, relative development/viability: 0.954
Concentration 125, single biological replicates (Rep)
  dose response, relative development/viability: 1.000 and 0.926 and 0.889

“And” between values parts separate entries of the source, which are not always exact repeats. Equal entries are not always repeated. Where two headings read alike, the source gives them in different places.
